Experimental data as given in patent publication EP2402322A1, “1,2,3,4-tetrahydroisoquinoline derivative and its use as orexin receptor antagonist” (Actelion Pharmaceuticals Ltd., priority 2010, dated 2012).

Chains of the proteins cited; added tags and fusions are not shown.
UniProt O43614, whole entry: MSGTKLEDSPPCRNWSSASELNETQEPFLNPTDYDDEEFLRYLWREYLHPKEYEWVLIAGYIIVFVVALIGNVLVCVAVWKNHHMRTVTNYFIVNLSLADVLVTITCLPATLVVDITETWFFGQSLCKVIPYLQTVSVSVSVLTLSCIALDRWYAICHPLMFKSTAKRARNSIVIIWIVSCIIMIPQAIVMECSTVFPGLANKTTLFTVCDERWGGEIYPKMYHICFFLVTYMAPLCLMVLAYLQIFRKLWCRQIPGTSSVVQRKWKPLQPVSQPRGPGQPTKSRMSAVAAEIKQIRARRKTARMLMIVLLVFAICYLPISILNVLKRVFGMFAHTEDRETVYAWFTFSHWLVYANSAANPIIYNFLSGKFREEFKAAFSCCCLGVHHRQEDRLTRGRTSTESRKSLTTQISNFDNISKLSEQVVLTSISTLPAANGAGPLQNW

Target: T1, human orexin-2 receptor (Homo sapiens, UniProt O43614)
T1 construct: expressed in transfected cells; host or cells: CHO cells (G418 selection)
Assay: Intracellular calcium measurements (FLIPR), CHO cells, 3 nM orexin-A as agonist
Format: cell-based
Protocol: Chinese hamster ovary (CHO) cells expressing the human orexin-1 receptor and the human orexin-2 receptor, respectively, are grown in culture medium (Ham F-12 with L-Glutamine) containing 300 µg/ml G418, 100 U/ml penicillin, 100 µg/ml streptomycin and 10 % heat inactivated fetal calf serum (FCS). The cells are seeded at 20'000 cells / well into 384-well black clear bottom sterile plates (Greiner). The seeded plates are incubated overnight at 37°C in 5% CO2.
Human orexin-A as an agonist is prepared as 1 mM stock solution in MeOH: water (1:1), diluted in HBSS containing 0.1 % bovine serum albumin (BSA), NaHCO3: 0.375g/l and 20 mM HEPES for use in the assay at a final concentration of 3 nM. […]
Within the Fluorescent Imaging Plate Reader (FLIPR Tetra, Molecular Devices), antagonists are added to the plate in a volume of 10 µl/well, incubated for 10 min and finally 10 µl/well of agonist is added. Fluorescence is measured for each well at 1 second intervals, and the height of each fluorescence peak is compared to the height of the fluorescence peak induced by 3 nM orexin-A with vehicle in place of antagonist. […] The calculated IC50 values may fluctuate depending on the daily cellular assay performance. […]

## COc1ccc(C[C@H]2c3cc(OC)c(OC)cc3CCN2[C@@H](C(=O)NC(C)C)c2ccccc2)cc1OC [COMPOUND, (R)-2-[(S)-1-(3,4-dimethoxy-benzyl)-6,7-dimethoxy-3,4-dihydro-1H-isoquinolin-2-yl]-N-isopropyl-2-phenyl-acetamide]
  IC50: > 500 nM
